In US20040014721A1, “Method for using tethered bis(polyhydroxyphenyls) and O-alkyl derivatives thereof in treating inflammatory conditions of the central nervous system” (Oklahoma Medical Research Foundation, priority 2002, published 2004):

Test system: TNFα-Stimulated NO2^− Production in EOC-20 Cells
Assay: TNFα-stimulated nitrite (NO2−) production in EOC-20 microglial cells, Griess assay
Format: cell-based
Conditions: Mus musculus, 24 h

Question: `Nc1nc2ccc(OC(F)(F)F)cc2s1` [Riluzole] was tested. Which IC50 did it give?
Answer: 95 µM
